The experiment has as its target Tie1-EpoR chimeric receptor (extracellular domain of human Tie1 fused with the transmembrane and cytoplasmic domains of mouse erythropoietin receptor) on Ba/F3 cells (human; mouse) (UniProt P14753). Description: cell-based or functional assay.

The chains behind the UniProt entries cited, without tags or fusion partners. Where a name states a change or a piece, a line headed by the entry shows the natural chain unless it says otherwise.
UniProt P14753: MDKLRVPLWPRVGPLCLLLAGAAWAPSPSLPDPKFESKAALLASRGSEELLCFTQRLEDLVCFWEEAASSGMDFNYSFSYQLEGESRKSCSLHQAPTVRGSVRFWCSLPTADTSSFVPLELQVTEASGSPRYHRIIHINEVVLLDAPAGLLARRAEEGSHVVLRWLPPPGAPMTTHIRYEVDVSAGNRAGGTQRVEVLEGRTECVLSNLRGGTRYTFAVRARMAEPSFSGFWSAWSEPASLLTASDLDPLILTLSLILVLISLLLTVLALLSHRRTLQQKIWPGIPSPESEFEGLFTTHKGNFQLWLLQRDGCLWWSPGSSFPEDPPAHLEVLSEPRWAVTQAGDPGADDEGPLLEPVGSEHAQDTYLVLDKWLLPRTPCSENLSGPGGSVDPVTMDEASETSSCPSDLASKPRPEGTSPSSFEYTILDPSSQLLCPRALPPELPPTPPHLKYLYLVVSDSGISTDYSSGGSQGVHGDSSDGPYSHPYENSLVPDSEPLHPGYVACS

Consider “P-A1 IgG (anti-Tie1 isolate p-A1, human IgG1) (antibody)”, for which the Average MTT activity in BaF3 cell assay, treatment E3 + PA1 (absorbance (540 nm)) is 0.6.

For “P-A10 IgG (anti-Tie1 isolate p-A10, human IgG1) (antibody)”, the Average MTT activity in BaF3 cell assay, treatment E3 + PA10 (absorbance (540 nm)) is 0.65.

The values above are taken from patent US20060024297A1 (published 2006).
